Biological target: Broad substrate specificity ATP-binding cassette transporter ABCG2 (Homo sapiens, UniProt Q9UNQ0)
Test: Inhibition of BCRP (unknown origin)

Protein sequences, listed by entry. Tags and fused reporters are not part of them. Lines headed by an entry give the natural chain unless they say otherwise; changes in a name come on top.
UniProt Q9UNQ0: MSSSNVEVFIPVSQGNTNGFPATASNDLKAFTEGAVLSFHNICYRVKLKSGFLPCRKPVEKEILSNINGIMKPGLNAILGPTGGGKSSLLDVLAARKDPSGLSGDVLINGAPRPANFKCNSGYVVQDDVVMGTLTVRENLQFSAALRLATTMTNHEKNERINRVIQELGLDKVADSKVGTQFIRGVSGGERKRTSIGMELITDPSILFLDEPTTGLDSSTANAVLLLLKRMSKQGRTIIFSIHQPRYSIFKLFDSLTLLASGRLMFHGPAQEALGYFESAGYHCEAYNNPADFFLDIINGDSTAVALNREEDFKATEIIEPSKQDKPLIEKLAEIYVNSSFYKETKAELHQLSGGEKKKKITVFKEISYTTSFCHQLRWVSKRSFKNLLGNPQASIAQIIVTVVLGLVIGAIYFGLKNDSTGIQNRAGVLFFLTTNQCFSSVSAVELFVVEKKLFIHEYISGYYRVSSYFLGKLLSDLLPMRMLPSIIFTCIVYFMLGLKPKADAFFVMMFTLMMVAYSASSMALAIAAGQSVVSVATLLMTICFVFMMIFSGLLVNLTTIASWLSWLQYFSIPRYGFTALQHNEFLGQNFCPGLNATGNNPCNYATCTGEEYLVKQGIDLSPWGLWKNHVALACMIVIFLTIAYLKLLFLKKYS

EC50: 300 nM
Structure (SMILES): COc1cc2ncnc(Nc3ccc(F)c(Cl)c3)c2cc1OCCCN1CCOCC1 [GEFITINIB]

— ChEMBL document CHEMBL5154779, “Exploration of novel phthalazinone derivatives as potential efflux transporter inhibitors for reversing multidrug resistance and improving the oral absorption of paclitaxel” (Eur J Med Chem, 2022)
